Laboratory results reported in patent US11021511B2, “Cyclic dinucleotides as sting agonists” (Janssen Biotech, Inc., priority 2017, dated 2021).

Tested on: THP1-Blue ISG cells
Experiment: Human interferon-β induction assay
Conditions: total cumulative IFN-β induction over the dose range tested (0.78 to 50 μM) in THP-1 Blue cells; tested form: Na salt

## COC1C2COP(=O)(O)OC3C4OCC3(COP(=O)(O)OC1C(n1cnc3c(=O)[nH]c(N)nc31)O2)OC4n1cnc2c(N)ncnc21 (stereo not shown)
  human IFN-β (ranking value): 821
